# Values quoted from earlier work, collected in patent US6685915B2, “Extended-linear polymeric contrast agents, and synthesizing methods, for medical imaging” (General Electric Company, priority 1999, dated 2004).
# Details: in vivo; cited from earlier work
substance,measurement,value
albumin—Gd-DTPA,immune reactions and toxicity when injected,substantial toxicities
